Assay results: PubChem BioAssay (NCI)
“And” between values parts separate entries of the source, which are not always exact repeats. Equal entries are not always repeated.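 In this assay, cells in 96-well plates receive the compound at five concentrations for 48 hours. Endpoints are linearly interpolated between the surrounding concentrations. Here, GI50 denotes the concentration required for 50% inhibition of growth. At the TGI there is no net growth.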

Assays:
Test in all cases: DTP human tumour cell line panel, 48 h
[1] = tested on: MDA-MB-231 breast
[2] = tested on: OVCAR-4 ovarian
[3] = tested on: SNB-19 CNS
[4] = tested on: NCI-H460 lung
[5] = tested on: HCT-15 colon
[6] = tested on: BT-549 breast
[7] = tested on: KM12 colon
[8] = tested on: 786-0 renal
[9] = tested on: OVCAR-8 ovarian
[10] = tested on: A498 renal
[11] = tested on: SK-MEL-28 melanoma
[12] = tested on: UACC-62 melanoma
[13] = tested on: A549 NSCLC
[14] = tested on: SNB-75 CNS
[15] = tested on: HOP-92 NSCLC
[16] = tested on: OVCAR-3 ovarian
[17] = tested on: UACC-257 melanoma
[18] = tested on: SF-295 CNS
[19] = tested on: ACHN renal
[20] = tested on: CCRF-CEM leukemia
[21] = tested on: SK-MEL-2 melanoma
[22] = tested on: SF-268 CNS
[23] = tested on: HT29 colon
[24] = tested on: HCT-116 colon
[25] = tested on: SK-OV-3 ovarian
[26] = tested on: SN12C renal
[27] = tested on: U251 CNS
[28] = tested on: NCI-H522 lung
[29] = tested on: RXF 393 renal

SMILES: CC1=C[C@H]2O[C@@H]3C[C@H]4OC(=O)/C=C\C=C\[C@H]([C@@H](C)O)OCC[C@@H](C)[C@H](O)C(=O)OC[C@@]2(CC1)[C@]4(C)[C@]31CO1
- GI50 [1]: 3.63 nM
- TGI [1]: 9.69 nM
- GI50 [2]: 2.76 nM and < 1.43 nM
- TGI [2]: 5.17 nM
- GI50 [3]: 7.25 nM and 2.19 nM
- TGI [3]: 8.7 nM
- GI50 [4]: 2.77 nM and < 1.43 nM
- TGI [4]: 8.14 nM and 5.01 nM
- GI50 [5]: 3.12 nM and < 1.43 nM
- TGI [5]: 8.47 nM
- GI50 [6]: 2.79 nM
- TGI [6]: 9.11 nM
- GI50 [7]: 2.99 nM and 2.26 nM
- TGI [7]: 11.8 nM
- GI50 [8]: 2.67 nM
- TGI [8]: 8.01 nM
- GI50 [9]: 9.26 nM and 3.4 nM
- TGI [9]: 11.7 nM
- GI50 [10]: 2.5 nM and 1.65 nM
- TGI [10]: 6.94 nM and 3.9 nM
- GI50 [11]: 3.33 nM and < 1.43 nM
- TGI [11]: 4.12 nM
- GI50 [12]: 2.4 nM
- TGI [12]: 4.98 nM
- GI50 [13]: 2.95 nM
- TGI [13]: 9.27 nM
- GI50 [14]: 2.05 nM
- TGI [14]: 4.02 nM
- GI50 [15]: 1.95 nM
- TGI [15]: 8.11 nM
- GI50 [16]: 2.58 nM and < 1.43 nM
- TGI [16]: 9.2 nM and 6.43 nM
- GI50 [17]: 9.15 nM and 2.65 nM
- TGI [17]: 7.78 nM
- GI50 [18]: 2.85 nM
- TGI [18]: 7.42 nM
- GI50 [19]: 2.9 nM
- TGI [19]: 9.15 nM
- GI50 [20]: 5.59 nM
- GI50 [21]: 2.96 nM
- TGI [21]: 7.15 nM
- GI50 [22]: 6.51 nM and 3.96 nM
- TGI [22]: 14 nM
- GI50 [23]: 3.48 nM and 2.09 nM
- TGI [23]: 7.26 nM
- GI50 [24]: 3.12 nM and < 1.43 nM
- TGI [24]: 2.96 nM
- GI50 [25]: 2.96 nM
- TGI [25]: 8.99 nM
- GI50 [26]: 3.26 nM
- TGI [26]: 11.2 nM
- GI50 [27]: 5.69 nM and 2.79 nM
- TGI [27]: 9.94 nM
- GI50 [28]: 2.4 nM and < 1.43 nM
- TGI [28]: 6.71 nM and 1.93 nM
- GI50 [29]: 6.89 nM and < 1.43 nM
- TGI [29]: 2.82 nM
